Among the data in patent publication US7148353B2 (priority 2003, dated 2006) are IC50 values, retold here.

The chains behind the UniProt entries cited, without tags or fusion partners.
UniProt P16257, whole entry: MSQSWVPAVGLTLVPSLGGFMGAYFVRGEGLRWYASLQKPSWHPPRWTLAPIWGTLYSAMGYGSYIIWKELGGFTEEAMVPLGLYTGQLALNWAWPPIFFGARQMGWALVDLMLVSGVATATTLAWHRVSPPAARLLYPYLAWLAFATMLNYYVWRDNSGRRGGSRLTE

For orientation: IC50 means the concentration at which inhibition is half-maximal.

The target in test [1] is central benzodiazepine receptors. Put plainly: binding to central benzodiazepine receptors, displacement of 3H-flunitrazepam (test of Speth et al.). As to conditions: read-out: IC50 (nM) central, Table 1b. (In general: Displacement assays read how much labelled ligand stays bound in the presence of the test substance.)
Test [2] has as its target peripheral benzodiazepine receptors (Rattus norvegicus, UniProt P16257). The note with it: read-out: IC50 (nM) peripheral, Table 1b.
Setting [3] is: tested as the radiolabelled form.

Where two headings read alike, the source gives them in different places.

In the case of `O=C(Cc1c(-c2ccccc2)nc2ccc(Cl)cn12)c1cccs1`, the IC50 in test [1] (setting [3]) was 630 nM; in test [2] (setting [3]), 1200 nM.
As to `Cc1cc(Cl)cn2c(CC(=O)c3cccs3)c(-c3ccccc3)nc12`, the IC50 was above 10000 nM in test [1] (setting [3]) and 3700 nM in test [2] (setting [3]).
Turning to `Cc1ccc(-c2nc3ccc(C(F)(F)F)cn3c2CC(=O)c2cccs2)cc1`, the IC50 was above 10000 nM in test [1] and 650 nM in test [2].
